This data set is described as follows: activity coefficient (dimensionless); of the first substance listed, at infinite dilution; xn = mol fraction of the nth substance listed. To be noted: Liquid, Chromatography, x1 = 0.

Numbers after ± are expanded uncertainties.

Take `CCCCOCCCC` [dibutyl ether] + CCCC[N+]1(C)CCCCC1.N#C[S-]: the activity coefficient stood at 79.3 ± 5.4 (318.2 K); 73.5 ± 5 (328.2 K); 68.2 ± 4.7 (338.2 K); 63.6 ± 4.4 (348.2 K); 60.6 ± 4.2 (358.2 K).

Source of the values: the NIST ThermoML archive (doi:10.1021/je101008y).
